Compounds with a hit are over-represented: about 4.2% of the library has one in this group of screens.
NALP1 inh: inhibitors of NALP1 inflammasome in yeast | S. cerevisiae NALP1/ASC/caspase-1 growth, X-gal OD620, 72 h | inhibition, % at 10 µM | hit rate 0.61% among 280,000; in the data active = inhibition mostly above about 24%, no sharp cut-off; inactive = mostly below about 32%
HDAC3 inhib: human HDAC3 inhibition | O15379 | recombinant HDAC3, fluorogenic peptide/trypsin coupled, fluorescence | inhibition, % at 8.3 µM | hit rate 0.15% among 320,000 | AID 2718; in the data active = inhibition above about 26%, passing the limit was not always enough; inconclusive = no clear call, values can overlap the other calls
MC4R barr agon: agonists of human melanocortin 4 receptor (MC4R) beta-arrestin | P32245 | hit rate 0.98% among 360,000 | U2OS MC4R beta-arrestin complementation, luminescence; percent of melanotan II response, DMSO zero | activation, % at 8.9 µM;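 active = activation above a per-plate cutoff, the mean activation of sample wells on that plate plus 3 SD, cut at about 8% in these data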
Yeast UUG start: modulators of start codon recognition fidelity in yeast. S. cerevisiae UUG-firefly luciferase reporter, luminescence/redox ratio. activity score, % at 18.7 µM. 0.13% of 350,000 active. AID 602363;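 active = replicate mean at a twofold rise or more, about +100% in these data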;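 also: firefly luciferase made from a UUG start codon reports start codon fidelity; reporter light over untreated wells divided by growth signal over untreated wells; some hits fall short of that in this replicate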
MC4R antagonist: blocks human MC4R cAMP signaling. hit rate 0.48% among 360,000. MC4R-expressing cells, MTII-stimulated cAMP, LANCE TR-FRET. P32245. inhibition, % at 6.5 µM;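 active = inhibition above its plate's cutoff, the mean of tested wells on that plate plus 3 SD, cut at about 29% in these data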;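 note: 0% = Melanotan II alone and 100% = Melanotan II plus saturating MCL0020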
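Assay system: U2OS cells stably expressing human melanocortin 4 receptor (MC4R) / Dosing: 6.5 µM / Timing: compound 30 min, challenge 1 h, detection 1 h / Measured by: Eu-cAMP/anti-cAMP TR-FRET, emission 671 nm / Replicates: singlicate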
ALR H2O2 inh: inhibitors of human ALR sulfhydryl oxidase, primary screen, biochemical, H2O2 detection, HRP-luminol luminescence, single point | AID 485317, 2010 | inhibition, % (test concentration not listed) | purified ALR, DTT oxidation | FAD-linked sulfhydryl oxidase ALR (Homo sapiens), P55789 | hit rate 3.8% among 290,000;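 active = mean and each replicate at 75% or more; inconclusive = only one of the two met; inactive = neither met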;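 also: stock transfer was 7.5 nL into about 7.5 µL; 0% = neutral wells and 100% = wells with inactivated enzyme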
Starred values were filed as active, the others as inactive; u = inconclusive; x = no result.

The line under a structure holds: NALP1 inh | HDAC3 inhib | MC4R barr agon | Yeast UUG start | MC4R antagonist | ALR H2O2 inh
[1] CC(CCN1CCN(c2ccc(F)cc2)CC1)c1ccccc1 (stereo not given)
  12.2 | 11.3 | -0.5 | -16.2 | 8.9 | 36.1
[2] C[C@@H]1CN([C@@H](C)CO)C(=O)c2cc(NC(=O)Nc3ccc4c(c3)OCO4)ccc2O[C@@H](C)CCCCO[C@@H]1CN(C)C(=O)Cc1ccccc1
  x | x | x | 6.0 | x | x
[3] COc1cc(/C=N/NC(=O)C(C)Nc2n[nH]c(=O)[nH]c2=O)ccc1O (stereo not given)
  4.5 | 0.1 | -0.8 | -6.6 | -4.3 | 98.8*
[4] COc1cc(/C=N/NC(=O)CNc2n[nH]c(=O)[nH]c2=O)ccc1O
  3.9 | 9.6 | -2.3 | -10.8 | -2.8 | 97.9*
[5] Cc1ccc2nc(SCC(=O)Nc3cccnc3Cl)[nH]c2c1
  x | 1.2 | 0.2 | -13.1 | 0.6 | 87.9*
[6] O=C(COc1ccc2ccccc2c1)Nc1cccnc1Cl
  2.6 | -0.2 | 8.3* | -19.6 | 12.7 | 0.7
[7] O=C(COc1ccc2ccccc2c1)Nc1cccc2cccnc12
  1.2 | 1.1 | -2.7 | -22.8 | -1.6 | -19.0
[8] CC(=O)c1cc2c(cc1NC(=O)CSc1nc3ccc(C)cc3[nH]1)OCO2
  10.2 | 1.6 | 0.4 | -16.0 | -17.1 | -5.1
[9] Cc1ccc(C)c(SCC(=O)Nc2cccnc2Cl)c1
  33.2* | 4.1 | -5.1 | x | 11.4 | -14.4
[10] Cc1cc(SCC(=O)Nc2cccnc2Cl)nc2ccccc12
  3.9 | -2.3 | -2.9 | -11.3 | 16.1 | -3.0
[11] C[C@H]1CN([C@@H](C)CO)C(=O)Cc2cc(NC(=O)Nc3ccc4c(c3)OCO4)ccc2O[C@H]1CN(C)C(=O)Nc1ccccc1
  x | x | x | 11.4 | x | x
[12] CCNC(=O)C[C@H]1CC[C@@H]2[C@H](COc3ccc(NC(=O)Cc4ccccc4)cc3C(=O)N2C)O1
  x | x | x | -24.4 | x | x
[13] O=C(NC(=S)NNC(=O)[C@H]1C[C@@H]1c1ccccc1)c1cccc(F)c1
  1.7 | -2.1 | -1.2 | -5.4 | 2.7 | 98.5*
[14] Cc1ccccc1S(=O)(=O)N1CC[C@@H]2[C@@H](CO)Nc3ccc(-c4ccc(C#N)cc4)cc3[C@@H]21
  x | x | x | -36.2 | x | x
[15] CC1CCCCC1NC(=O)Cn1ncc2ccccc21 (stereo not given)
  25.5 | 5.3 | 0.0 | 4.9 | 8.2 | 97.5*
[16] CC1CCC(NC(=O)Cn2ncc3ccccc32)CC1 (stereo not given)
  29.2 | -2.3 | 1.2 | -16.6 | 3.6 | -0.6
[17] CC(C)CC#Cc1ccc2c(c1)O[C@@H](CN(C)C(=O)Nc1ccccc1)[C@H](C)CN([C@@H](C)CO)S2(=O)=O
  x | x | x | -9.8 | x | x
[18] Cc1ccc(C(=O)NC(=S)NNC(=O)c2ccc([N+](=O)[O-])cc2)cc1
  -3.4 | -1.1 | 0.7 | -24.1 | -2.8 | 98.8*
[19] O=C(NNC(=S)NC(=O)c1ccccc1)c1ccc([N+](=O)[O-])cc1
  17.0 | 0.5 | -2.7 | -18.8 | 1.9 | 99.0*
[20] O=C(NNC(=S)NC(=O)c1ccccc1[N+](=O)[O-])c1ccccc1[N+](=O)[O-]
  -5.4 | 1.7 | -1.4 | -3.9 | 3.0 | -2.0
[21] Cc1ccc(C(=O)NC(=S)NNC(=O)c2ccccc2[N+](=O)[O-])cc1
  14.0 | 3.8 | -1.1 | -30.3 | 12.1 | 98.7*
[22] O=C(NC(=S)NNC(=O)c1ccccc1O)c1ccc([N+](=O)[O-])cc1
  13.8 | 1.9 | -1.8 | -20.0 | 5.4 | 4.2
[23] CCCCOc1ccccc1C(=O)NNC(=S)NC(=O)c1ccccc1[N+](=O)[O-]
  -8.2 | -0.2 | -3.9 | -24.9 | 3.4 | 84.1*
[24] CC(=O)Nc1ccc(NC(=S)NC(=O)c2ccc([N+](=O)[O-])cc2)cc1
  26.8 | 3.4 | 0.2 | -15.3 | -1.4 | -10.3
[25] C[C@@H](NC(=O)C[C@@H]1CC[C@H](NC(=O)C2CCC2)[C@@H](CO)O1)c1ccccc1
  x | x | x | -3.8 | x | x
[26] CO[C@@H]1CN(C)C(=O)c2cc(NC(=O)NC(C)C)ccc2OC[C@H](C)N(C(=O)CC2CC2)C[C@@H]1C
  x | x | x | 0.7 | x | x
[27] C[C@@H]1CCCCO[C@H](CN(C)S(=O)(=O)c2cn(C)cn2)[C@@H](C)CN([C@H](C)CO)C(=O)c2cc(NS(=O)(=O)c3ccccc3)ccc2O1
  x | x | x | -1.2 | x | x
[28] O=CNNC(=O)c1cccc([N+](=O)[O-])c1
  27.4 | -4.9 | -0.6 | x | -1.2 | 0.7
[29] CCCCCC(=O)NNC(=S)NC(=O)c1ccc([N+](=O)[O-])cc1
  -15.2 | -8.5 | 1.0 | -19.9 | -6.6 | 88.3*
[30] O=C(Nc1ccc(Cl)c([N+](=O)[O-])c1)c1ccc(NCCCN2CCOCC2)c([N+](=O)[O-])c1
  33.0 | 1.4 | 19.8* | -1.2 | 4.7 | -5.2

Brought forward from above: 5 entries, then new ones.
The line under a structure holds: NALP1 inh | HDAC3 inhib | MC4R barr agon | Yeast UUG start | MC4R antagonist | ALR H2O2 inh
[26] CO[C@@H]1CN(C)C(=O)c2cc(NC(=O)NC(C)C)ccc2OC[C@H](C)N(C(=O)CC2CC2)C[C@@H]1C
  x | x | x | 0.7 | x | x
[27] C[C@@H]1CCCCO[C@H](CN(C)S(=O)(=O)c2cn(C)cn2)[C@@H](C)CN([C@H](C)CO)C(=O)c2cc(NS(=O)(=O)c3ccccc3)ccc2O1
  x | x | x | -1.2 | x | x
[28] O=CNNC(=O)c1cccc([N+](=O)[O-])c1
  27.4 | -4.9 | -0.6 | x | -1.2 | 0.7
[29] CCCCCC(=O)NNC(=S)NC(=O)c1ccc([N+](=O)[O-])cc1
  -15.2 | -8.5 | 1.0 | -19.9 | -6.6 | 88.3*
[30] O=C(Nc1ccc(Cl)c([N+](=O)[O-])c1)c1ccc(NCCCN2CCOCC2)c([N+](=O)[O-])c1
  33.0 | 1.4 | 19.8* | -1.2 | 4.7 | -5.2
[31] CC(=O)c1ccc(NC(=S)NNC(=O)c2ccccc2[N+](=O)[O-])cc1
  -17.2 | 5.2 | 0.0 | -26.3 | -5.8 | 93.4*
[32] O=C(NNc1c(Cl)cc(Cl)cc1Cl)c1cccc([N+](=O)[O-])c1
  27.5 | -11.4 | -0.2 | -33.8 | 21.4 | 92.7*
[33] Cc1noc(C)c1S(=O)(=O)Nc1ccc2c(c1)C(=O)N([C@@H](C)CO)C[C@H](C)[C@@H](CN(C)C(=O)Cc1ccccc1)OCCCC[C@H](C)O2
  x | x | x | 15.1 | x | x
[34] CO[C@@H]1CN(C)C(=O)c2ccc(NC(=O)C3CC3)cc2OC[C@@H](C)N(C(=O)c2ccccc2F)C[C@H]1C
  x | x | x | -1.6 | x | x
[35] CN(C)CC(=O)Nc1ccc2c(c1)[C@@H]1C[C@H](CC(=O)NCCN3CCCCC3)O[C@H](CO)[C@@H]1O2
  x | x | x | -16.7 | x | x
[36] C[C@@H]1CN([C@@H](C)CO)C(=O)c2cc(-c3cccnc3)cnc2O[C@@H]1CN(C)C(=O)C1CCC1
  x | x | x | -12.7 | x | x
[37] O=C(NNC(=S)NC(=O)c1ccc(Br)cc1)c1cccc([N+](=O)[O-])c1
  -5.9 | -0.8 | -3.2 | -21.2 | -0.3 | 98.6*
[38] O=C(Nc1c(Cl)cc(Cl)cc1C(=O)NCCN1CCOCC1)c1ccc(Cl)cc1Cl
  -61.8 | -5.1 | -0.7 | -5.2 | -7.0 | -3.8
[39] O=C(NNC(=S)NCc1ccccc1)c1cccc([N+](=O)[O-])c1
  -22.9 | 6.9 | 0.1 | -25.9 | -4.6 | 14.4
[40] CC(=O)NNC(=S)NC(=O)c1cccc([N+](=O)[O-])c1
  2.1 | u | 1.5 | x | 4.7 | 72.8
[41] O=C(Nc1c(Cl)cc(Cl)cc1C(=O)NCCN1CCOCC1)c1cccc([N+](=O)[O-])c1
  14.0 | -2.6 | -2.2 | x | -7.8 | 99.4*
[42] O=C(NNC(=S)NC(=O)c1ccccc1Cl)c1cccc([N+](=O)[O-])c1
  15.0 | 1.0 | 0.1 | -38.9 | -0.1 | 96.7*
[43] O=C(NNC(=S)NC(=O)c1ccc(Br)cc1)c1ccc([N+](=O)[O-])cc1
  3.6 | 3.8 | -1.8 | -17.1 | 9.1 | 99.6*
[44] CC(C)C(=O)Nc1ccc2c(c1)C(=O)N(C)[C@H]1CC[C@@H](CC(=O)Nc3ccccc3)O[C@H]1CO2
  x | x | x | 29.6 | x | x
[45] CNC[C@@H]1OCCCC[C@@H](C)Oc2ccc(NC(=O)CCC(F)(F)F)cc2C(=O)N([C@@H](C)CO)C[C@H]1C
  x | x | x | 12.0 | x | x
[46] O=C(C[C@H]1C[C@@H]2c3cc(NC(=O)NC4CCCCC4)ccc3O[C@@H]2[C@@H](CO)O1)NCCc1ccccc1
  x | x | x | -0.5 | x | x
